The source of these data is US20230331817A1 (The Regents of the University of California, priority 2020, published 2023).

Series [1] concerns HUVEC. Conditions: 24 hours; 30 μM KD1TM, 30 μM BPTI, 60 mM EACA, 30 mM TXA.
Series [2] has as its system primary human dermal skin fibroblasts. Conditions: 24 hours; 30 μM KD1TM, 30 μM BPTI, 60 mM EACA, 30 mM TXA.

In the case of `NC[C@H]1CC[C@H](C(=O)O)CC1` [TXA, tranexamic acid], in series [1], the “HUVEC cytotoxicity, CellTox green (FIG. 7)” value is “induced toxicity”. For the same compound, the “Fibroblasts cytotoxicity, CellTox green (FIG. 8)” value in series [2] is given as “induced toxicity”.
